Experimental findings from US20100248255A1, “NOVEL PEPTIDES” (KYOWA HAKKO KOGYO CO., LTD, priority 2005, published 2010) are described below.

This assay has as its system antiserum (rabbit, Peptide 7-KLH conjugate as antigen). The experiment in a line: Binding specificity of antiserum by competitive RIA with [125I]-labeled Peptide 1. Particulars: non-VGF peptides at 1, 10, and 100 pmol. As to the method: As controls, reactions that use RIA buffer instead of the antiserum to measure non-specific binding, and reactions […] that use RIA buffer instead of VGF-derived peptide solutions to measure the maximum binding level were carried out. Reactions for non-specific binding were performed in quadruplicates, and the other reactions were performed in duplicates, and for each of the reactants, the immune complex was precipitated as in the above-mentioned antibody titer measurements, and its radioactivity (cpm) was measured. The average radioactivity of non-specific binding reaction is defined as non-specific binding level N, the radioactivity value for each VGF-derived peptide addition reaction is defined as Y, and the radioactivity value of maximum binding reaction is defined as Z. The percentage ratio (B/B0) of antiserum specific binding level (B) with peptide addition to the maximum binding level (B0), was determined using the following formula.
B/B0 (%)={(Y−N)/(Z−N)}×100
Accordingly, the amount of peptide that achieves 50% B/B0, more specifically, the amount of peptide that yields 50% inhibition of the maximum binding level, was used as an indicator of the peptide binding activity to the antiserum. […]

Take calcitonin gene-related peptide: the “inhibition of antiserum binding to [125I]-labeled Peptide 1” value was “none of the peptides showed inhibition”.
